These are literature values, as cited in patent publication US7214771B2, “Nucleic acid and protein expression thereby and their involvement in stress” (University of Medicine & Dentistry of New Jersey, priority 1999, dated 2007).

SMILES strings stand for the structures.

The test system of data set [1] is human bladder cancer and human testicular embryonal germ cell carcinoma. As to conditions: dipyridamole alone; cited from earlier work.
In data set [2] the test system is human ovarian cancer cells. As to conditions: with cisplatin; both sensitive and resistant human ovarian cancer cells; cited from earlier work.

Take `OCCN(CCO)c1nc(N2CCCCC2)c2nc(N(CCO)CCO)nc(N3CCCCC3)c2n1` [dipyridamole]: the “cytotoxicity of agent alone” value in data set [1] was “not cytotoxic”. Further, the “enhancement of cisplatin cytotoxicity” value in data set [2] was 65%.
